Values of other authors as cited in article PMC11642070, “OCTN1 (SLC22A4) as a Target of Heavy Metals: Its Possible Role in Microplastic Threats” (International Journal of Molecular Sciences, 2024).

Parameters: key to the marks not given beside the values
Settings: according to ATSDR; ref https://www.atsdr.cdc.gov/toxprofiles; cited from earlier work

Q: Which “Level of Toxicity” value does the source give for Mercury here?
A: Its value is “+++”.
